Source: US7666985B2, “HLA-A24-restricted cancer antigen peptides” (International Institute of Cancer Immunology, Inc., priority 2002, dated 2010)
“Also recorded” adds a separate entry of the source.

Tested on: Jurkat-A2402/K^b cells pulsed with the peptide
Test: CTL-inducing activity (immunogenicity) in HLA-A2402/K^b transgenic mouse, 51Cr release assay
Assay type: in vivo
Details: HLA-A2402/K^b transgenic mice (three per peptide) immunized s.c. with peptide + helper peptide in IFA; splenocytes stimulated in vitro 6 days; peptide-pulsed vs non-pulsed Jurkat-A2402/K^b targets; E/T ratio of 80
Protocol: […]; SEQ ID NO: 32), and examined whether specific CTLs are induced as is the case with human. Specifically, HER-2/neu780-788 and helper peptide were adjusted to 40 mg/ml and 20 mg/ml, respectively, in DMSO and diluted with a physiological saline to 2 mg/ml and 1 mg/ml, respectively. They were mixed with an equal amount of Freund's incomplete adjuvant (Wako Pure Chemical Industries, Ltd.) using a glass syringe to prepare a water-in-oil emulsion. The resultant preparation (200 μl) was injected into a transgenic mouse (04-1 line) subcutaneously in the base of the tail for immunization. Seven days after the initiation of experiment, the spleen was removed and grounded on the frosted part of glass slide, and splenocytes were recovered and prepared. A portion of the splenocytes undergone hemolysis treatment with an ACK buffer (0.15 M NH4Cl, 10 mM KHCO3, 0.1 mM EDTA, pH 7.2-7.4) was exposed to X ray radiation (2,000 rad), pulsed with the above-mentioned peptide (100 μg/ml) for 1 hour, and seeded into a 24-well plate at 0.7×10^6/well. […]
CTL-inducing activity was determined by ^51Cr release assay (J. Immunol., 159:4753, 1997), wherein the previously prepared transgenic mouse splenocyte preparation was added to said Jurkat-A2402/K^b cells as the target cells.
Immunogenicity of each antigen peptide was evaluated using the HLA-A2402/K^b transgenic mouse as constructed in aforementioned References. […]

With “Arg Met Phe Pro Asn Ala Pro Tyr Leu (RMFPNAPYL) [peptide A, natural peptide, positions 126 to 134 of human WT1]” the “immunogenicity (activity to induce CTLs; cytotoxic activity, % Specific Lysis)” value was “have no immunogenicity; also recorded: no specific CTL was induced”.
